In the assay the target is Transient receptor potential cation channel subfamily V member 1 (Homo sapiens, UniProt Q8NER1). Put plainly: Antagonist activity at human TRPV1 expressed in human 1321N1 cells assessed as inhibition of capsaicin-induced calcium influx by FLIPR assay. The assay is classed as functional, cell-based.

Protein sequences, listed by entry. Tags and fused reporters are not part of them.
UniProt Q8NER1, whole entry: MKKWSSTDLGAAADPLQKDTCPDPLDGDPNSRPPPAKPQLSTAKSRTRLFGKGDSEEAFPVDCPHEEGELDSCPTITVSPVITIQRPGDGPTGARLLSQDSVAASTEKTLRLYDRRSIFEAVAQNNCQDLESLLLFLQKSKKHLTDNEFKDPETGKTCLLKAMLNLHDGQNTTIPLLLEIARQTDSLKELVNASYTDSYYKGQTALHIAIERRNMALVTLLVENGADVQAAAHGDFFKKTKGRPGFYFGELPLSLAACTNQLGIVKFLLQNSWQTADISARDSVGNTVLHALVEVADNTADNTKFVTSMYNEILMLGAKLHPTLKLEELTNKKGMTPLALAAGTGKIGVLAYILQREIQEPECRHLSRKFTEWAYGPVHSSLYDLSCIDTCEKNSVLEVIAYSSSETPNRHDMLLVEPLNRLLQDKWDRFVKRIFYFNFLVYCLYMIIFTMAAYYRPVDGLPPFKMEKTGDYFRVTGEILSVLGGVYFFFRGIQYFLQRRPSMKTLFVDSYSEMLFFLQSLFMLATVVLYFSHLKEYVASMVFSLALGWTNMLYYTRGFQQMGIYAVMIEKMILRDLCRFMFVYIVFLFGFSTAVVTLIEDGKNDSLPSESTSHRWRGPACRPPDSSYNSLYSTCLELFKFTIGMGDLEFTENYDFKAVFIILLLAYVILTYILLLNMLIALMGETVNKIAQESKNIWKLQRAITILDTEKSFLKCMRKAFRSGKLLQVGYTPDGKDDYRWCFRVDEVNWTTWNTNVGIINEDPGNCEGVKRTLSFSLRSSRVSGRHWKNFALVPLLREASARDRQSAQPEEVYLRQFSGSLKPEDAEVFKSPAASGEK

Broadly, the pKb is the negative decadic logarithm of the Kb, by convention in mol/L.

Take `O=C(Nc1ccc2cccnc2c1)c1ccc(-c2ccccc2)nc1`: the pKb was 8.7.
